“And” between values parts separate entries of the source, which are not always exact repeats. Equal values may be shown once. The list shows a part of the results, in another mix than the full data. The source made the active and inactive calls. The call rests on the fitted dose curve; in most records, active means well fitted activation curve with a large enough effect; inconclusive means small, poorly fitted or top-dose-only effect; inactive means no such curve, though single readings can be large or run the other way.
Test: qHTS for Inducers of the Endoplasmic Reticulum Stress Response (ERSR) in Human Glioma: qHTS; further: % of control where 0% means no effect; nearly all actives have a fitted effect of over 35% in size
Settings: U87-MG GRP78 promoter luciferase reporter, 16 h; active compounds read high

| SMILES | activation |
| --- | --- |
| CN(C(=O)Cc1ccccc1)[C@@H]1CC[C@]2(CCCO2)C[C@H]1N1CCCC1 | inactive: -1.81% and inactive: 1.77% |
| CCOP1(=S)c2c(C)nn(CCC#N)c2N=C(c2ccc(F)cc2)N1C (configuration not stated) | inactive: -0.778% |
| N#CCCN(C(=O)COC(=O)C(O)(c1ccccc1)c1ccccc1)c1ccc(F)cc1 | inactive: -2.42% |
| CN(C(=O)Cc1ccc(Cl)c(Cl)c1)[C@H]1CC[C@@]2(CCCO2)C[C@@H]1N1CCCC1 | inactive: -1.82% |
| O=[N+]([O-])c1ccc2c(c1)nnn2O | inactive: -2.51% |
| CN(C)C(=O)c1cc([N+](=O)[O-])cc2c1-c1c(cc([N+](=O)[O-])cc1[N+](=O)[O-])C2=O | inactive: -12.1% |
| O=P(Nc1nccs1)(Oc1ccccc1)Oc1ccccc1 | inactive: -2.33% |
| O=P(Nc1nccs1)(c1ccccc1)c1nc2ccccc2s1 (configuration not stated) | inactive: -10.1% |
| CCOP1(=S)c2c(C)nn(CCC#N)c2N=C(c2ccccc2F)N1C (configuration not stated) | inactive: -4.25% |
| CS(=O)(=O)c1cc([N+](=O)[O-])c2no[n+]([O-])c2c1 | inactive: 3.72% |
| Nc1ccccc1[As](=O)(O)c1ccccc1 | inactive: -2.45% |
| O=C(O)COc1ccc([As](=O)(O)O)cc1[N+](=O)[O-] | inactive: -2.84% |
| Nc1cccc2c([As](=O)(O)O)cccc12 | inactive: -8.41% |
| Cc1ccc(NCCc2c([N+](=O)[O-])cc([N+](=O)[O-])cc2[N+](=O)[O-])cc1 | inactive: -1.36% |
| CCCOP(=S)(Nc1nc(N)cc(=O)[nH]1)OCCC | inactive: -2.38% |
| CCOP(=O)(Nc1cccc2ccccc12)OCC | inactive: -1.2% |
| COc1cc(C2NCCC3(OCCO3)C2(C)C)cc(OC)c1OC (configuration not stated) | inactive: -5.35% |
| CN(C(=O)Cc1ccc(Cl)c(Cl)c1)[C@@H]1CC[C@]2(CCCO2)C[C@H]1N1CCCC1 | inactive: 1.9% and inactive: -3.57% |
| O=C(OC1CN2CCC1CC2)c1ccc(Cl)cc1 (configuration not stated) | inactive: -1.79% |
| CS(=O)(=O)c1ccc(Cl)c(NC(=O)COC(=O)C(O)(c2ccccc2)c2ccccc2)c1 | inactive: -4.84% |
| O=[As](O)(O)c1cccnc1 | inactive: -1.89% |
| COc1cc(C(=O)NCC2(N3CCOCC3)CCCCC2)cc(Cl)c1OC(C)C | inactive: -0.923% |
| Cc1cccc(OCC(=O)OC2CN3CCC2CC3)c1 (configuration not stated) | inactive: -6.03% |
| O=[As](O)(c1cccc(O)c1)c1cccc(O)c1 | inactive: -1.26% |
| O=[N+]([O-])c1cc(Oc2ccc([N+](=O)[O-])cc2C(F)(F)F)cc([N+](=O)[O-])c1 | inactive: -3.55% |

| SMILES | activation |
| --- | --- |
| COc1ccc(N/C(=N/P(=O)(N2CCOCC2)N2CCOCC2)N2CCOCC2)cc1 | inactive: -3.35% |
| Cc1c2c(nc3ccccc13)SC(C(Cl)Cl)C2 (configuration not stated) | inactive: 3.14% |
| Cc1cc(=O)[nH]c(N[N+](=O)[O-])n1 | inactive: -2.71% |
| O=C(OC1CN2CCC1CC2)C12CC3CC(CC(C3)C1)C2 (configuration not stated) | inactive: -3.38% |
| O=P1(N(CCCl)CCCl)Nc2ccccc2N1 | inactive: 8.78% |
| O=P1(N(CCCl)CCCl)OCCCN1CCCl (configuration not stated) | inactive: -2.33% |
| COc1cc(I)ccc1[As](=O)(O)O | inactive: -1.4% |
| COc1ccc2nc(NP(=O)(c3ccccc3)c3ccccc3)sc2c1 | inactive: -3.14% |
| ClCCSc1nnc(-c2cccnc2)o1 | inactive: 4.92% |
| O=Cc1ccc(NCCCl)cc1 | inactive: -3.46% |
| COC(=O)C1(C)COP(=O)(N2CCCCCC2)OC1 (configuration not stated) | inactive: -2.99% |
| CC(C)c1ccc(OP(=O)(Nc2ccccn2)Oc2ccccc2F)cc1 (configuration not stated) | inactive: -1.06% |
| O=[N+]([O-])c1cc([N+](=O)[O-])c(-c2ccn[nH]2)s1 | inactive: -1.76% |
| CC(C)NC(=O)NP(=O)(Oc1ccccc1)Oc1ccccc1 | inactive: 0.616% |
| O=C(OC1CN2CCC1CC2)c1cccc2[nH]cnc12 (configuration not stated) | inactive: 2.63% |
| CCN(CC)C(=S)SC(NC=O)C(Cl)(Cl)Cl (configuration not stated) | inactive: -0.511% |
| O=[N+]([O-])c1ccc(-c2cc([N+](=O)[O-])c(O)c([N+](=O)[O-])c2)cc1 | inactive: -4.07% |
| COc1cc(C(=O)NCC2(N3CCOCC3)CCCCC2)ccc1OCC(C)C | inactive: -0.278% |
| O=[As](O)(c1ccc(O)cc1)c1ccccc1O | inactive: -3.95% |
| C[As](=O)(O)c1cccc(C(=O)O)c1 | inactive: -5.1% |
| ClCCN(CCCl)c1ccc(CC2C=CC=C2)cc1 | inactive: -1.37% |
| Cc1ccc(OP(=O)(Nc2ccc([N+](=O)[O-])cn2)Oc2ccc(C)cc2)cc1 | inactive: -4.72% |
| CCOC(=O)Nc1cccc([As](=O)(O)O)c1 | inactive: -0.986% |
| O=P(Nc1ccccn1)(c1cccc2ccccc12)c1cccc2ccccc12 | inactive: 0.907% |
| Cc1cc(SC(NC=O)C(Cl)(Cl)Cl)ncn1 (configuration not stated) | inactive: 0.782% |

| SMILES | activation |
| --- | --- |
| O=[N+]([O-])c1ccc(Nc2ccc(Oc3ccc([N+](=O)[O-])cc3[N+](=O)[O-])cc2)c([N+](=O)[O-])c1 | inactive: 5.42% |
| CCOC(=O)Nc1ccc([As](=O)(O)O)c(O)c1 | inactive: -4.06% |
| O=C(O)C(O)c1ccc(N(CCCl)CCCl)cc1 (configuration not stated) | inactive: -2.65% |
| CC1CCNP(=O)(N(CCCl)CCCl)O1 (configuration not stated) | inactive: -3.6% |
| COP(=O)(OC)N1CC1c1ccccc1 (configuration not stated) | inactive: -3.29% |
| Cc1cc(SC(NC(=O)c2ccccc2)C(Cl)(Cl)Cl)nc(C(C)C)n1 (configuration not stated) | inactive: -0.584% |
| CCCCOc1ccc(C(=O)NCC2(N3CCCCC3)CCCCC2)cc1OC | inactive: 6.78% |
| CSc1ccc(Nc2c([N+](=O)[O-])cc([N+](=O)[O-])cc2[N+](=O)[O-])cc1 | inactive: -8.89% |
| O=C(OC1CN2CCC1CC2)c1cccc([N+](=O)[O-])c1 (configuration not stated) | inactive: -3.57% |
| CCOC(=O)c1ccc(NC(=O)C(C)(CCl)SC)cc1 (configuration not stated) | inactive: 4.94% |
| CCC(C)N(CC(C)C)C(=S)SC(NC(C)=O)C(Cl)(Cl)Cl (configuration not stated) | inactive: -1.34% |
| CCOP(=O)(Nc1cccc2cccnc12)OCC | inactive: -1.53% |
| COC(=O)C1(C)COP(=O)(N2CCCC2)OC1 (configuration not stated) | inactive: -3.83% |
| COP1(=S)c2c(C)nn(CCC#N)c2N=C(c2ccc(F)cc2)N1C (configuration not stated) | inactive: -2.9% |
| O=C(O)C(=O)c1ccc(N(CCCl)CCCl)cc1 | inactive: -1.32% |
| O=C(Nc1ccncc1[N+](=O)[O-])c1ccc([N+](=O)[O-])cc1[N+](=O)[O-] | inactive: -6.06% |
| O=C(COc1ccccc1)OC1CN2CCC1CC2 (configuration not stated) | inactive: -0.751% |
| CCN(/C(=N/P(=O)(N1CCOCC1)N1CCOCC1)N1CCOCC1)c1ccc(OC)cc1 | inactive: -3.65% |
| C[N+]1=C2C=CC=CC=C2SC12C([N+](=O)[O-])=CC([N+](=O)[O-])=C[C-]2[N+](=O)[O-] (configuration not stated) | inactive: -9.66% |
| Nc1ccc([As](=O)(O)c2ccc(N)cc2)cc1 | inactive: 0.208% |
| CC(=O)C1=CCCC2CCC1N2 (configuration not stated) | inactive: -3.88% and inactive: -2.47% |
| CC1CCN(C(=O)Oc2c(Cl)cc(Cl)c3cccnc23)CC1 | inactive: 11.8% |
| c1cc(-c2nn[nH]n2)ccc1-c1nn[nH]n1 | inactive: -1.86% |
| CN(C)C(=O)OCCc1n(C)cc[n+]1C | inactive: -1.79% |
| CC(C)c1nc(Nc2ccccc2)n(P(=O)(N(C)C)N(C)C)n1 | inactive: -2.39% |

| SMILES | activation |
| --- | --- |
| COc1cc([N+](=O)[O-])c([N+](=O)[O-])cc1OC | inactive: -4.57% |
| CC(C)=N/N=C(\N)N[N+](=O)[O-] | inactive: -6.93% |
| COc1ccc(C2=NCC(CBr)S2)cc1 (configuration not stated) | inactive: -0.844% |
| CCc1nc2c(n1)c1c(non1O)c1c2no[n+]1[O-] | inactive: -15.6% |
| O=[N+]([O-])c1cc([N+](=O)[O-])c(CCNc2ccccc2)c([N+](=O)[O-])c1 | inactive: -4.6% |
| Cc1ccc(NP(=O)(Oc2ccccc2)Oc2ccccc2)nc1 | inactive: -4.15% |
| O=[N+]([O-])c1cccc2n[nH]nc12 | inactive: -2.53% |
| CC(=O)N1C2C3N(C(C)=O)C1C1N(C(C)=O)C(C(N1C(C)=O)N3C(C)=O)N2C(C)=O | inactive: -0.985% |
| O=[N+]([O-])c1ncn(CCn2ncnc2[N+](=O)[O-])n1 | inactive: -2.52% |
| CC(C)(C)C(=O)NC(Sc1ccncn1)C(Cl)(Cl)Cl (configuration not stated) | inactive: -6.2% |
| O=C(O)CNc1ccc([As](=O)(O)O)cc1 | inactive: -2.52% |
| COC(=O)C1(C)COP(=O)(Nc2ccccc2)OC1 (configuration not stated) | inactive: -6.6% |
| O=[N+]([O-])c1cccc(NC2=NCC(CBr)S2)c1 (configuration not stated) | inactive: -3.48% |
| Cc1cc(C=O)ccc1N(CCCl)CCCl | inactive: 0.0407% |
| O=P1(N(CCCl)CCCl)OCCCS1 (configuration not stated) | inactive: -4.67% |
| O=P(/N=c1/nc(-c2ccccc2)n(-c2ccccc2)s1)(Nc1ccccc1)Nc1ccccc1 | inactive: 11% |
| O=C(Nc1cc([As](=O)(O)O)ccc1O)c1ccccc1 | inactive: -5.04% |
| Nc1c(O)cc([N+](=O)[O-])cc1[N+](=O)[O-] | inactive: -3.23% |
| Nc1cccc2ccc([As](=O)(O)O)cc12 | inactive: 0.563% |
| CCN(N=Nc1nonc1N)c1nonc1N | inactive: -5.61% |
| O=P(Nc1nc2ccc(Cl)cc2s1)(c1ccccc1)c1ccccc1 | inactive: 0.644% |
| CN(C)P(=O)(N(C)C)n1c(Nc2ccccc2)nnc1-c1ccccc1 | inactive: 3.57% |
